Results reported in patent US20070218563A1, “Stiochiometrically defined dye-labelled substances for measuring glomerular filtration rate, the production thereof and their use” (Roche Diagnostics Operations, Inc., priority 2004, published 2007).

Settings: half-life in blood plasma, rat; for t/2 before UNX: before unilateral nephrectomy, administration into jugular vein; for t/2 after UNX: two days convalescence after unilateral nephrectomy

## fluorescein isothiocyanate cellobiose [FITC-CEL]
  t/2 before UNX: 34 ± 6 min
  t/2 after UNX: 95 ± 12 min

## fluorescein isothiocyanate hexaethylene glycol [FITC-HEG]
  t/2 before UNX: 45 ± 16 min
  t/2 after UNX: 71 ± 39 min

## fluorescein isothiocyanate mannose [FITC-MAN]
  t/2 before UNX: 58 ± 7 min
  t/2 after UNX: 104 ± 37 min
